Like-named read-outs stand apart in the source and are kept apart here.
How the values were obtained:
[1] = molecular target: Human CB1R (Cannabinoid receptor 1) (Homo sapiens, UniProt P21554); assay: CB-1 in vitro cAMP (HTRF) assay
[2] = molecular target: Human CB2R (Cannabinoid receptor 2) (Homo sapiens, UniProt P34972); assay: CB-2 in vitro cAMP (HTRF) assay
Source text: CB1 and CB2 receptors are Gi-coupled GPCR. Activation of CB1 and CB2 receptors results in a decrease in cAMP production. An inverse agonist of the CB1 or CB2 receptor results in the opposite effect, an increase of cAMP production. The principle of this assay is based on HTRF® technology (Homogeneous Time-Resolved Fluorescence). The method is a competitive immunoassay between native cAMP produced by cells and the cAMP labeled with the fluorophore d2. The tracer binding is quantified by a Mab anti-cAMP labeled with Eu3+TBP-NHS Cryptate (supplied as part of the assay kit). The specific signal (i.e. energy transfer) is inversely proportional to the concentration of cAMP in the standard or sample.
Human CB1R (Cannabinoid receptor 1) was stably transfected in HEK-293 cells (DiscoveRx, cat: 93-0200C1). Human CB2R (Cannabinoid receptor 2) was stably transfected in HEK-293 cells (DiscoveRx, cat: 93-0201C1). Cell cultures were maintained in media: DMEM (Invitrogen Cat#12430-054) supplemented with 10% HI FBS (Invitrogen Cat#16140-071), 1% L-glutamine (Invitrogen Cat#25030-081), 0.2 mg/ml Hygromycin B (Invitrogen Cat#10687-010), 600 μg/mL G418 (Invitrogen Cat#10131-035), and 1× Penn/Strep (Invitrogen 15140-122). After cell expansion, aliquots were cryo-stored in media containing 5% DMSO (Pierce Cat#20684).
One day prior to experiments media was warmed to 37° C. and the cryo-stored cells were thawed in a 37° C. water bath. The cells were then added to media (10× volume) and the mixture was centrifuged at 1000 RPM for 5 min. The supernate was removed and the cells were re-suspended in media. A sample of the cell suspension was evaluated on a Cedex XS automated cell counter (Innovatis Systems) to determine viable cells/ml. Additional media was added to the cells to achieve a final cell density of 4E5 cells/mL. The cells were then plated into 384 well PDL white solid bottom plates (Greiner, Cat#781945) at 20 μL per well using a Multidrop (Thermo Scientific). Cells were removed from Row P (location of cAMP standards). Two columns of cells were plated into a clear bottom 384 well PDL coated plate (Greiner, Cat#781944) to view confluence the day of the assay. The cell plates were lidded and stored for 15 minutes in a hood, then transferred to an incubator (37° C., 5% CO2, 95% humidity) overnight.
DMSO was added to all wells of 384 well V bottom polystyrene plate (Greiner, Cat#781280) except to columns 1 and 13, rows O and P and wells M13-M23 and N13-N23. Test compounds (60 μL, 10 mM) were added to Column 1 and 13 (A1 through N1 and A13 through L13). Test compounds were serially diluted 1/3 by transferring and mixing 20 μl sample with 40 μL DMSO.
DMSO (40 μL) was added to wells of 384 well V bottom polystyrene plate: O2 through O11, M14 through M23, N14 through N23, and O14 through O23. AM630 (also known as [6-iodo-2-methyl-1-[2-(4-morpholinyl)ethyl]-1H-indol-3-yl](4-methoxyphenyl)-methanone, Cayman Chemical, Cat#10006974) (60 μL, 10 mM) was added to O1; and 1-(2,4-dichlorophenyl)-7-[(4-fluorophenyl)methylene]-4,5,6,7-tetrahydro-N-1-piperidinyl-1H-benzimidazole-3-carboxamide (60 μL, 10 mM) was added to N13. The control was serially diluted 1/3 by transferring and mixing 20 μl sample with 40 μL DMSO. This process resulted 11 doses per control, 10 mM to […].
Cells plated the day prior to the assay in clear bottom plates were viewed on an inverse microscope to ensure confluency in the range of 60-75%. […]

Protein sequences, listed by entry. Tags and fused reporters are not part of them.
UniProt P21554, whole entry: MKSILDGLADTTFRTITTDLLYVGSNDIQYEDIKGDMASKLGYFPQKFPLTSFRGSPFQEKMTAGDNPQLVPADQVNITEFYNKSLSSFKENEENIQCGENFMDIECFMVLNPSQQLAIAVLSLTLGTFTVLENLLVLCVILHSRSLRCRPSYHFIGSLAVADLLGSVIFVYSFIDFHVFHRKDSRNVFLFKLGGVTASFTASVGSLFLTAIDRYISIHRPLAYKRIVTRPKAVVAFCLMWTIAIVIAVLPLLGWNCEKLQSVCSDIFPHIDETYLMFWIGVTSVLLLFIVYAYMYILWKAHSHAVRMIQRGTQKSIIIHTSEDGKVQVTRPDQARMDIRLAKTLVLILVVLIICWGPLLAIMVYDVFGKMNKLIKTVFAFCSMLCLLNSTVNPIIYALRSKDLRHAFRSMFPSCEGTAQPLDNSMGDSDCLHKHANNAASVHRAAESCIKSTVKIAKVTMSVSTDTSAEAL
UniProt P34972, whole entry: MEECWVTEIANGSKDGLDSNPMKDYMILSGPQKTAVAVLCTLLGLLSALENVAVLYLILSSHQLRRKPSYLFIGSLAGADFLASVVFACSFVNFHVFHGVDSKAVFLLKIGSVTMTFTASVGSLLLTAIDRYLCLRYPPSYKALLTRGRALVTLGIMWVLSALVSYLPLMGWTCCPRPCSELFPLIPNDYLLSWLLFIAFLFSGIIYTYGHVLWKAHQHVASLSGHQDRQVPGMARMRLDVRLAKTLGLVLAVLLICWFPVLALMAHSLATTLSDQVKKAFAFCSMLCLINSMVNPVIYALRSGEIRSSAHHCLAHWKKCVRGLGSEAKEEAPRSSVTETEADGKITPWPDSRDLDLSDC

[3] = read-out: CB1 HEK_cAMP EC50, HEK cells, 250 nM forskolin, mean where tested more than once
[4] = read-out: CB2 HEK_cAMP EC50, HEK cells, 250 nM forskolin, mean where tested more than once
[5] = read-out: CB1 HEK_cAMP EC50, HEK cells, 250 nM forskolin, mean where tested more than once, tested form: trifluoroacetate
[6] = read-out: CB2 HEK_cAMP EC50, HEK cells, 250 nM forskolin, mean where tested more than once, tested form: trifluoroacetate

EC50 [1, 3] [µM] | EC50 [2, 4] [µM] | EC50 [1, 5] [µM] | EC50 [2, 6] [µM] | Structure (SMILES)
0.0854 | 4.4 | – | – | O=C(O)CCNC(=O)c1ccc(S(=O)(=O)N2CCC(n3c(C4CC4)nc4ccc(C(c5ccc(Cl)cc5)c5ccc(Cl)cc5)cc43)CC2)cn1
> 10 | – | – | – | O=S(=O)(N1C2CCC1CC(n1c(-c3ccccn3)nc3ccc(C(c4ccc(Cl)cc4)c4nccs4)cc31)C2)C(F)(F)F (centres unmarked)
2.78 | > 10 | – | – | O=S(=O)(N1C2CCC1CC(n1c(-c3cccnc3)nc3ccc(C(c4ccc(Cl)cc4)c4nccs4)cc31)C2)C(F)(F)F (centres unmarked)
> 10 | > 10 | – | – | O=S(=O)(N1C2CCC1CC(n1c(C3CCC3)nc3ccc(C(c4ccc(Cl)cc4)c4nccs4)cc31)C2)C(F)(F)F (centres unmarked)
> 10 | – | – | – | CC(C)Cc1nc2ccc(C(c3ccc(Cl)cc3)c3nccs3)cc2n1C1CC2CCC(C1)N2S(=O)(=O)C(F)(F)F (centres unmarked)
0.316 | > 10 | – | – | CCc1nc2ccc(C(c3ccc(Cl)cc3)c3nccs3)cc2n1CC(O)c1ccc(Cl)cc1 (centres unmarked)
0.26 | 7.23 | – | – | CC(Cn1c(C2CC2)nc2ccc(C(c3ccc(Cl)cc3)c3nccs3)cc21)c1ccc(Cl)cc1 (centres unmarked)
1.08 | 2.77 | – | – | CCOC(=O)N1C2CCC1CC(n1c(-c3cccnc3)nc3ccc(C(c4ccc(Cl)cc4)c4nccs4)cc31)C2 (centres unmarked)
1.18 | > 10 | – | – | CC(Cn1c(CC(F)(F)F)nc2ccc(C(c3ccc(Cl)cc3)c3nccs3)cc21)c1ccc(Cl)cc1 (centres unmarked)
> 10 | > 10 | – | – | O=S(=O)(N1C2CCC1CC(n1c(C3CCCC3)nc3ccc(C(c4ccc(Cl)cc4)c4nccs4)cc31)C2)C(F)(F)F (centres unmarked)
> 10 | > 10 | – | – | CCOC(=O)N1C2CCC1CC(n1c(C3CCCC3)nc3ccc(C(c4ccc(Cl)cc4)c4nccs4)cc31)C2 (centres unmarked)
2.72 | > 10 | – | – | CCOC(=O)N1C2CCC1CC(n1c(CC)nc3ccc(C(c4ccc(Cl)cc4)c4nccs4)cc31)C2 (centres unmarked)
> 10 | > 10 | – | – | CCOC(=O)c1nc2ccc(C(c3ccc(Cl)cc3)c3nccs3)cc2n1C1CC2CCC(C1)N2C(=O)OCC (centres unmarked)
– | – | 0.0364 | 5.8 | NC(=O)Cc1ccc(N2CCC(n3c(C4CC4)nc4ccc(C(c5ccc(Cl)cc5)c5ccc(Cl)cc5)cc43)CC2)cc1
> 10 | > 10 | – | – | CCOC(=O)N1C2CCC1CC(n1c(C)nc3ccc(C(c4ccc(Cl)cc4)c4nccs4)cc31)C2 (centres unmarked)
– | – | 0.0275 | > 10 | COC(=O)CCNC(=O)c1ccc(S(=O)(=O)N2CCC(n3c(C4CC4)nc4ccc(C(c5ccc(Cl)cc5)c5ccc(Cl)cc5)cc43)CC2)cn1
0.41 | > 10 | – | – | C[C@H](Cn1c(C2CC2)nc2ccc(C(c3ccccc3)c3ccc(Cl)cc3)cc21)c1ccccc1 (some centres unmarked)
0.0649 | 8.84 | – | – | O=C(O)c1ccc(S(=O)(=O)N2CC(n3c(C4CC4)nc4ccc(C(c5ccc(Cl)cc5)c5ccc(Cl)cc5)cc43)C2)cc1
0.154 | > 10 | – | – | O=C(O)c1ccc(S(=O)(=O)N2CCC(n3c(C4CC4)nc4ccc(C(c5ccc(Cl)cc5)c5ccc(Cl)cc5)cc43)C2)cc1 (centres unmarked)
2.81 | > 10 | – | – | C[C@H](Cn1c(C2CC2)nc2ccc(C(c3ccccc3)c3ccccc3)cc21)c1ccccc1
0.719 | > 10 | – | – | CCOC(=O)N1C2CCC1CC(n1c(C(C)C)nc3ccc(C(c4ccc(Cl)cc4)c4nccs4)cc31)C2 (centres unmarked)
0.436 | > 10 | – | – | OC(Cn1c(C2CC2)nc2ccc(C(c3ccc(Cl)cc3)c3nccs3)cc21)c1ccc(Cl)cc1 (centres unmarked)

EC50 [1, 3] [µM] | EC50 [2, 4] [µM] | EC50 [1, 5] [µM] | EC50 [2, 6] [µM] | Structure (SMILES)
7.24 | > 10 | – | – | O=S(=O)(N1C2CCC1CC(n1c(-c3ccncc3)nc3ccc(C(c4ccc(Cl)cc4)c4nccs4)cc31)C2)C(F)(F)F (centres unmarked)
– | – | 0.0267 | 3 | O=C(O)c1cccc(CN2CC(n3c(C4CC4)nc4ccc(C(c5ccc(Cl)cc5)c5ccc(Cl)cc5)cc43)C2)c1
> 10 | > 10 | – | – | O=S(=O)(N1C2CCC1CC(n1c(-c3ccc(Cl)cc3)nc3ccc(C(c4ccc(Cl)cc4)c4nccs4)cc31)C2)C(F)(F)F (centres unmarked)
> 10 | > 10 | – | – | CCOC(=O)N1C2CCC1CC(n1c(-c3ccncc3)nc3ccc(C(c4ccc(Cl)cc4)c4nccs4)cc31)C2 (centres unmarked)
0.162 | > 10 | – | – | CCc1nc2ccc(C(c3ccc(Cl)cc3)c3nccs3)cc2n1C(C)Cc1ccc(Cl)cc1 (centres unmarked)
> 10 | > 10 | – | – | CCOC(=O)N1C2CCC1CC(n1c(CC(C)C)nc3ccc(C(c4ccc(Cl)cc4)c4nccs4)cc31)C2 (centres unmarked)
> 10 | – | – | – | Cc1nc2ccc(C(c3ccc(Cl)cc3)c3nccs3)cc2n1C1CC2CCC(C1)N2S(=O)(=O)C(F)(F)F (centres unmarked)
0.196 | > 10 | – | – | COC(=O)c1nc2ccc(C(c3ccc(Cl)cc3)c3nccs3)cc2n1C1CC2CCC(C1)N2S(=O)(=O)C(F)(F)F (centres unmarked)
1.76 | 1.63 | – | – | CCOC(=O)N1C2CCC1CC(n1c(-c3ccc(Cl)cc3)nc3ccc(C(c4ccc(Cl)cc4)c4nccs4)cc31)C2 (centres unmarked)
0.596 | 3.96 | – | – | O=C(O)c1ccc(S(=O)(=O)N2CC(n3c(C4CC4)nc4ccc(C(c5ccc(Cl)cc5)c5ccc(Cl)cc5)cc43)C2)o1
> 10 | > 10 | – | – | CCOC(=O)N1C2CCC1CC(n1c(-c3ccccn3)nc3ccc(C(c4ccc(Cl)cc4)c4nccs4)cc31)C2 (centres unmarked)
0.13 | 10.3 | – | – | O=C(O)c1ccc(S(=O)(=O)N2CCC(n3c(C4CC4)nc4ccc(C(c5ccc(Cl)cc5)c5ccc(Cl)cc5)cc43)C2)o1 (centres unmarked)
0.24 | > 10 | – | – | CC(Cc1ccc(Cl)cc1)n1c(C2CC2)nc2ccc(C(c3ccc(Cl)cc3)c3nccs3)cc21 (centres unmarked)
> 10 | > 10 | – | – | CCCc1nc2ccc(C(c3ccc(Cl)cc3)c3nccs3)cc2n1C1CC2CCC(C1)N2S(=O)(=O)C(F)(F)F (centres unmarked)
0.0347 | > 10 | – | – | O=S(=O)(N1C2CCC1CC(n1cnc3ccc(C(c4ccc(Cl)cc4)c4nccs4)cc31)C2)C(F)(F)F (centres unmarked)
– | – | 0.01 | 2.65 | O=C(O)c1ccc(S(=O)(=O)N2CCC(n3c(C4CC4)nc4ccc(C(c5ccc(Cl)cc5)c5ccc(Cl)cc5)cc43)CC2)cn1
0.141 | 7.6 | – | – | O=C(O)CCNC(=O)c1cccc(S(=O)(=O)N2CCC(n3c(C4CC4)nc4ccc(C(c5ccc(Cl)cc5)c5ccc(Cl)cc5)cc43)CC2)c1
4.32 | > 10 | – | – | CCCc1nc2ccc(C(c3ccc(Cl)cc3)c3nccs3)cc2n1C1CC2CCC(C1)N2C(=O)OCC (centres unmarked)
> 10 | – | – | – | CC(C)c1nc2ccc(C(c3ccc(Cl)cc3)c3nccs3)cc2n1C1CC2CCC(C1)N2S(=O)(=O)C(F)(F)F (centres unmarked)
0.416 | > 10 | – | – | Cc1nc2ccc(C(c3ccc(Cl)cc3)c3ccc(Cl)cc3)cc2n1C[C@@H](C)c1ccccc1
> 10 | – | – | – | O=S(=O)(N1C2CCC1CC(n1c(C3CC3)nc3ccc(C(c4ccc(Cl)cc4)c4nccs4)cc31)C2)C(F)(F)F (centres unmarked)
0.0047 | > 10 | – | – | O=S(=O)(c1ccc(Cl)cc1)N1CCC(n2c(C3CC3)nc3ccc(C(c4ccc(Cl)cc4)c4ccc(Cl)cc4)cc32)CC1

Structure (SMILES) | EC50 [1, 3] [µM] | EC50 [2, 4] [µM] | EC50 [1, 5] [µM] | EC50 [2, 6] [µM]
Clc1ccc(C(c2ccc3ncn(C4CCCCC4)c3c2)c2nccs2)cc1 (centres unmarked) | 0.243 | > 10 | – | –
Cc1nc2ccc(C(c3ccc(Cl)cc3)c3nccs3)cc2n1C1CCCCC1 (centres unmarked) | 0.0899 | > 10 | – | –
NCCc1nc2ccc(C(c3ccc(Cl)cc3)c3ccc(Cl)cc3)cc2n1C1CCN(Cc2cccc(C(=O)O)c2)CC1 | – | – | 0.0356 | > 10
